Results as given in PubChem BioAssay AID1917 (Vanderbilt High Throughput Screening Facility, 2009).
This is a selection; strong and weak results do not stand in their true shares. Results filed as inconclusive are left out. Active and inactive are the calls of the source.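 Rule for the calls: active = Flux at 10 µM at least 3 SD below or above vehicle control mean in one or both replicates; inconclusive = no clear call, values can overlap the other calls; inactive = the rest.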

The chains behind the UniProt entries cited, without tags or fusion partners.
UniProt P48048, whole entry: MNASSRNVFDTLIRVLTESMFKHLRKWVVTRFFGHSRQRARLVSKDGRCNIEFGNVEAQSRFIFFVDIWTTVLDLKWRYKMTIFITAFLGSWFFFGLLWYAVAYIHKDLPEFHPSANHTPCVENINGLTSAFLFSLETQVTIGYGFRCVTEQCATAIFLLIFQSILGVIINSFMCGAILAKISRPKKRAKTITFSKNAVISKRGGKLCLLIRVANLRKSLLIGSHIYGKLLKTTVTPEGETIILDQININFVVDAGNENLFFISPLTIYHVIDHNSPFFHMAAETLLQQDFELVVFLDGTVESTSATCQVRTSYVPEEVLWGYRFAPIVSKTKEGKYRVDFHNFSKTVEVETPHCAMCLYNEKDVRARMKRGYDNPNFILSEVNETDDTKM

Target: ATP-sensitive inward rectifier potassium channel 1 (Homo sapiens) (UniProt P48048)
Test: ROMK channel modulator hit retest, confirmation, cell-based, thallium flux, duplicate, resupplied hits (AID 1917)
Details: fluorescence ratio, at 10 µM, hits give low values

Structure (SMILES) | normalized thallium flux (F/F0 slope)
O=[N+]([O-])c1ccc2c(c1)C=Nc1ccccc1O2 | active: 0.0529
